From patent US12590088B2 (dated 2026)
Where two headings read alike, the source gives them in different places.

The chains behind the UniProt entries cited, without tags or fusion partners. Where a name states a change or a piece, a line headed by the entry shows the natural chain unless it says otherwise.
UniProt O60674: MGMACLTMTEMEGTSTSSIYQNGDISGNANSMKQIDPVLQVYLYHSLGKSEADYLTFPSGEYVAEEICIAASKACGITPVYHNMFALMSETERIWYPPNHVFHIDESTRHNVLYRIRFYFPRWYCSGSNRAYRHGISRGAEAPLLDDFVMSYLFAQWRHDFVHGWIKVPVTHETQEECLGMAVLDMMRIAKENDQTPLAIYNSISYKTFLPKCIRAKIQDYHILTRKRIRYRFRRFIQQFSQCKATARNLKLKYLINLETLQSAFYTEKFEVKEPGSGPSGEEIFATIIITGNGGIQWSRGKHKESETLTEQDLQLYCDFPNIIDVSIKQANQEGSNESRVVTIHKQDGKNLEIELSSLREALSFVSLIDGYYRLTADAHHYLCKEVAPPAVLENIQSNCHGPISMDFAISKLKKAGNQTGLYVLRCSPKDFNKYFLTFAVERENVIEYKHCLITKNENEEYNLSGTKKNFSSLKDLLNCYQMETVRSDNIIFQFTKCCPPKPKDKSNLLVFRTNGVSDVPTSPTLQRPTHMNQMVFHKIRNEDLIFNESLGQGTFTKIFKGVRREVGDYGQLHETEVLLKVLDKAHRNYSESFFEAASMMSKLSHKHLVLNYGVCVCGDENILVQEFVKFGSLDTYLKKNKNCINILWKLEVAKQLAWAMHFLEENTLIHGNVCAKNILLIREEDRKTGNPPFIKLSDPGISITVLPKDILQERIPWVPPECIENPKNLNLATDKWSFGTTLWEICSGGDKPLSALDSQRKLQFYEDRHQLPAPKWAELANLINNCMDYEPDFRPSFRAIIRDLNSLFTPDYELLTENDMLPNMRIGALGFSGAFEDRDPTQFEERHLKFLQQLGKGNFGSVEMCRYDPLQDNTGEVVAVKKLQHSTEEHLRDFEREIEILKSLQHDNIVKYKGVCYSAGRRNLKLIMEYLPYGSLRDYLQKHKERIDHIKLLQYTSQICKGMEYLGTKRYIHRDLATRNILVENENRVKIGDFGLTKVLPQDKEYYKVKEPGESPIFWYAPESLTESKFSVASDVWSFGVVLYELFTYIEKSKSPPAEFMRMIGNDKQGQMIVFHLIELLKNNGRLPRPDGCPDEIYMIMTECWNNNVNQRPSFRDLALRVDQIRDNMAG
UniProt P23458: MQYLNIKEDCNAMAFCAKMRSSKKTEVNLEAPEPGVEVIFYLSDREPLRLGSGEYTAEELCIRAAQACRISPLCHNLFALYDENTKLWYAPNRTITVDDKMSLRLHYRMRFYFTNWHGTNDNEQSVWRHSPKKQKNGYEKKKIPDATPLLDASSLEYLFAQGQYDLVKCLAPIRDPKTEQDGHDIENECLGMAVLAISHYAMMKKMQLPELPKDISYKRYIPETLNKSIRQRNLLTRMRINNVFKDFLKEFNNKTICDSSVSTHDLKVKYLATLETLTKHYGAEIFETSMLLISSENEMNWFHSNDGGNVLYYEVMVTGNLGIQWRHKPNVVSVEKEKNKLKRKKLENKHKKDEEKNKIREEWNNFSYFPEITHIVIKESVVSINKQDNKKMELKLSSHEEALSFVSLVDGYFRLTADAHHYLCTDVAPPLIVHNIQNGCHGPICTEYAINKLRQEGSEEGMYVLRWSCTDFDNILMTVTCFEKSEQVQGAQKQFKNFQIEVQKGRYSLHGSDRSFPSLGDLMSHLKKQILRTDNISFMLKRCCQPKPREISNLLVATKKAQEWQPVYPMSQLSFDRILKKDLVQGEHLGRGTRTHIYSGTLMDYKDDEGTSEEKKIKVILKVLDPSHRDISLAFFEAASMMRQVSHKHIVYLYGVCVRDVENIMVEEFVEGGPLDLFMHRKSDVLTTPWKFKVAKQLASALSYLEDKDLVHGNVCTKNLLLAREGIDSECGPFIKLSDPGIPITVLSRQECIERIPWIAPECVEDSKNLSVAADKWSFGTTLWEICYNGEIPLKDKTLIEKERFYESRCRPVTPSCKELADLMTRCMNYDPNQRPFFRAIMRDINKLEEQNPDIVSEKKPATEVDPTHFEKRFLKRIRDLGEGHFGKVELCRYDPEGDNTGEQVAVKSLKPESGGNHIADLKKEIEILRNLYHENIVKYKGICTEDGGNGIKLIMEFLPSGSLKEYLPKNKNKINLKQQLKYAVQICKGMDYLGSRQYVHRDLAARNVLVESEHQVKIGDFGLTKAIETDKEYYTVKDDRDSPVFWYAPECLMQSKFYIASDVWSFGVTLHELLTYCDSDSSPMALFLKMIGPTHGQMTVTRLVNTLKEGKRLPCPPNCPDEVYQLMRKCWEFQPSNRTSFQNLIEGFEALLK

Legend:
JAK2 = JAK2 (Homo sapiens, UniProt O60674); experiment: JAK2 IC50 measurement
JAK1 = JAK1 (Homo sapiens, UniProt P23458); experiment: JAK1 IC50 measurement

| Structure (SMILES) | IC50 (JAK1; read-out: IC50(μM) JAK1) | further results |
| --- | --- | --- |
| CNC(=O)c1cnc2[nH]ccc2c1N[C@@H]1CCN(Cc2ccccc2)[C@@H](C)C1 (relative stereo) [Compound 20a, 4-((trans-1-Benzyl-2-methylpiperidin-4-yl)amino)-N-methyl-1H-pyrrolo[2,3-b]pyridine-5-carboxamide] |  | IC50 (JAK2): 179 nM |
| CNC(=O)c1cnc2[nH]ccc2c1N[C@@H]1CCN(Cc2cccc(OC)c2)[C@@H](C)C1 (relative stereo) [Compound 20d, 4-((trans-1-(3-Methoxybenzyl)-2-methylpiperidin-4-yl)amino)-N-methyl-1H-pyrrolo[2,3-b]pyridine-5-carboxamide] |  | IC50 (JAK2): 88.5 nM |
| CNC(=O)c1cnc2[nH]ccc2c1N[C@@H]1CCN(Cc2ccc(OC)cc2)[C@@H](C)C1 (relative stereo) [Compound 20e, 4-((trans-1-(4-Methoxybenzyl)-2-methylpiperidin-4-yl)amino)-N-methyl-1H-pyrrolo[2,3-b]pyridine-5-carboxamide] |  | IC50 (JAK2): 817 nM |
| CNC(=O)c1cnc2[nH]ccc2c1N[C@H]1CCN(Cc2cccc(OC)c2)[C@@H](C)C1 (relative stereo) [Compound 20h, 4-((cis-1-(3-Methoxybenzyl)-2-methylpiperidin-4-yl)amino)-N-methyl-1H-pyrrolo[2,3-b]pyridine-5-carboxamide] |  | IC50 (JAK2): 28.4 nM |
| CNC(=O)c1cnc2[nH]ccc2c1NCC1CCN(Cc2ccccc2)CC1 [Compound 14a, 4-(((1-Benzylpiperidin-4-yl)methyl)amino)-N-methyl-1H-pyrrolo[2,3-b]pyridine-5-carboxamide] | 0.215 µM |  |
| CNC(=O)c1cnc2[nH]ccc2c1NCC1CCN(Cc2cccc(Cl)c2)CC1 [Compound 14b, 4-(((1-(3-Chlorobenzyl)piperidin-4-yl)methyl)amino)-N-methyl-1H-pyrrolo[2,3-b]pyridine-5-carboxamide] | 0.243 µM |  |
| CNC(=O)c1cnc2[nH]ccc2c1NCC1CCN(Cc2ccc(Cl)cc2)CC1 [Compound 14c, 4-(((1-(4-Chlorobenzyl)piperidin-4-yl)methyl)amino)-N-methyl-1H-pyrrolo[2,3-b]pyridine-5-carboxamide] | 0.0722 µM |  |
| CNC(=O)c1cnc2[nH]ccc2c1NCC1CCN(Cc2cccc(OC)c2)CC1 [Compound 14d, 4-(((1-(3-Methoxybenzyl)piperidin-4-yl)methyl)amino)-N-methyl-1H-pyrrolo[2,3-b]pyridine-5-carboxamide] | 0.132 µM |  |
| CNC(=O)c1cnc2[nH]ccc2c1NCC1CCN(Cc2ccc(OC)cc2)CC1 [Compound 14e, 4-(((1-(4-Methoxybenzyl)piperidin-4-yl)methyl)amino)-N-methyl-1H-pyrrolo[2,3-b]pyridine-5-carboxamide] | 0.0934 µM |  |
| CNC(=O)c1cnc2[nH]ccc2c1NC1CCN(Cc2ccccc2)C1 (stereo not drawn) [Compound 15a, 4-((1-Benzylpyrrolidin-3-yl)amino)-N-methyl-1H-pyrrolo[2,3-b]pyridine-5-carboxamide] | 0.4 µM |  |
| CNC(=O)c1cnc2[nH]ccc2c1NC1CCN(Cc2cccc(Cl)c2)C1 (stereo not drawn) [Compound 15b, 4-((1-(3-Chlorobenzyl)pyrrolidin-3-yl)amino)-N-methyl-1H-pyrrolo[2,3-b]pyridine-5-carboxamide] | 0.06 µM |  |
| CNC(=O)c1cnc2[nH]ccc2c1NC1CCN(Cc2ccc(Cl)cc2)C1 (stereo not drawn) [Compound 15c, 4-((1-(4-Chlorobenzyl)pyrrolidin-3-yl)amino)-N-methyl-1H-pyrrolo[2,3-b]pyridine-5-carboxamide] | 0.0801 µM |  |
| CNC(=O)c1cnc2[nH]ccc2c1NC1CCN(Cc2cccc(OC)c2)C1 (stereo not drawn) [Compound 15d, 4-((1-(3-Methoxybenzyl)pyrrolidin-3-yl)amino)-N-methyl-1H-pyrrolo[2,3-b]pyridine-5-carboxamide] | 0.827 µM |  |
| CNC(=O)c1cnc2[nH]ccc2c1NC1CCN(Cc2ccc(OC)cc2)C1 (stereo not drawn) [Compound 15e, 4-((1-(4-Methoxybenzyl)pyrrolidin-3-yl)amino)-N-methyl-1H-pyrrolo[2,3-b]pyridine-5-carboxamide] | 0.149 µM |  |
| CNC(=O)c1cnc2[nH]ccc2c1N[C@@H]1CCN(Cc2cccc(Cl)c2)C1 [Compound 15f, (R)-4-((1-(3-chlorobenzyl)pyrrolidin-3-yl)amino)-N-methyl-1H-pyrrolo[2,3-b]pyridine-5-carboxamide] |  | IC50 (JAK1): 0.0798 µM |
| CNC(=O)c1cnc2[nH]ccc2c1N[C@@H]1CCN(Cc2ccc(Cl)cc2)C1 [Compound 15g, (R)-4-((1-(4-Chlorobenzyl)pyrrolidin-3-yl)amino)-N-methyl-1H-pyrrolo[2,3-b]pyridine-5-carboxamide] |  | IC50 (JAK1): 0.0489 µM |
| CNC(=O)c1cnc2[nH]ccc2c1N[C@H]1CCN(Cc2cccc(Cl)c2)C1 [Compound 15h, (S)-4-((1-(3-Chlorobenzyl)pyrrolidin-3-yl)amino)-N-methyl-1H-pyrrolo[2,3-b]pyridine-5-carboxamide] |  | IC50 (JAK1): 0.42 µM |
| CNC(=O)c1cnc2[nH]ccc2c1N[C@H]1CCN(Cc2ccc(Cl)cc2)C1 [Compound 15i, (S)-4-((1-(4-Chlorobenzyl)pyrrolidin-3-yl)amino)-N-methyl-1H-pyrrolo[2,3-b]pyridine-5-carboxamide] |  | IC50 (JAK1): 0.703 µM |
| CNC(=O)c1cnc2[nH]ccc2c1NC1CC2CCC(C1)N2Cc1ccccc1 (stereo not drawn) [Compound 17a, 4-((8-Benzyl-8-azabicyclo[3.2.1]octan-3-yl)amino)-N-methyl-1H-pyrrolo[2,3-b]pyridine-5-carboxamide] | 0.0749 µM |  |
| CNC(=O)c1cnc2[nH]ccc2c1NC1CC2CCC(C1)N2Cc1cccc(Cl)c1 (stereo not drawn) [Compound 17b, 4-((8-(3-Chlorobenzyl)-8-azabicyclo[3.2.1]octan-3-yl)amino)-N-methyl-1H-pyrrolo[2,3-b]pyridine-5-carboxamide] | 0.0408 µM |  |
| CNC(=O)c1cnc2[nH]ccc2c1NC1CC2CCC(C1)N2Cc1cccc(OC)c1 (stereo not drawn) [Compound 17d, 4-((8-(3-Methoxybenzyl)-8-azabicyclo[3.2.1]octan-3-yl)amino)-N-methyl-1H-pyrrolo[2,3-b]pyridine-5-carboxamide] | 0.0461 µM |  |
| CNC(=O)c1cnc2[nH]ccc2c1NC1CC2CCC(C1)N2Cc1ccc(OC)cc1 (stereo not drawn) [Compound 17e, 4-((8-(4-Methoxybenzyl)-8-azabicyclo[3.2.1]octan-3-yl)amino)-N-methyl-1H-pyrrolo[2,3-b]pyridine-5-carboxamide] | 0.0338 µM |  |
| CNC(=O)c1cnc2[nH]ccc2c1NC1CC2CCC(C1)N2Cc1ccc(C#N)cc1 (stereo not drawn) [Compound 17g, 4-((8-(4-Cyanobenzyl)-8-azabicyclo[3.2.1]octan-3-yl)amino)-N-methyl-1H-pyrrolo[2,3-b]pyridine-5-carboxamide] | 0.0153 µM |  |
| CNC(=O)c1cnc2[nH]ccc2c1NC1CCCN(Cc2ccccc2)CC1 (stereo not drawn) [Compound 19a, 4-((1-Benzylazepan-4-yl)amino)-N-methyl-1H-pyrrolo[2,3-b]pyridine-5-carboxamide] | 0.0377 µM |  |
| CNC(=O)c1cnc2[nH]ccc2c1NC1CCCN(Cc2ccc(Cl)cc2)CC1 (stereo not drawn) [Compound 19c, 4-((1-(4-Chlorobenzyl)azepan-4-yl)amino)-N-methyl-1H-pyrrolo[2,3-b]pyridine-5-carboxamide] | 0.012 µM |  |
| CNC(=O)c1cnc2[nH]ccc2c1NC1CCCN(Cc2ccc(OC)cc2)CC1 (stereo not drawn) [Compound 19d, 4-((1-(4-Methoxybenzyl)azepan-4-yl)amino)-N-methyl-1H-pyrrolo[2,3-b]pyridine-5-carboxamide] | 0.0305 µM |  |
| CNC(=O)c1cnc2[nH]ccc2c1NC1CCCN(Cc2ccc(C#N)cc2)CC1 (stereo not drawn) [Compound 19e, 4-((1-(4-Cyanobenzyl)azepan-4-yl)amino)-N-methyl-1H-pyrrolo[2,3-b]pyridine-5-carboxamide] | 0.0327 µM |  |
